Patent US7067500B2, “Betaines as adjuvants to susceptibility testing and antimicrobial therapy” (priority 1997, dated 2006)

Test system: M. tuberculosis isolate 571/573-BAL
Experiment: Detergent screen for induced susceptibility, BACTEC 12B growth curves
Type: cell-based, Mycobacterium tuberculosis
Details: detergent approximately 17 μg/ml final, BACTEC 12B supplemented with PANTA or P/cax (ceftriaxone 8 μg/ml)

## CCCCCCCC/C=C\CCCCCCCC[N+](C)(C)[O-] [Mackamine O2, oleamine oxide]
  RESULT (effect on growth): Complete suppression of growth
Listed as oleamine oxide
  RESULT (effect on growth): significantly suppress growth
